# Values quoted from earlier work, collected in patent publication US20100239707A1 (priority 2007, published 2010).
# Conditions: in vivo
substance,measurement,value
lipopolysaccharide [LPS],LPS needed for a strongly lethal induction,10 µg/kg
